Experimental data: patent US6858640B2, “Tricyclic indole compounds having affinity for serotonin receptor” (Shionogi & Co., Ltd., priority 2000, dated 2005)

Protein sequences, listed by entry. Tags and fused reporters are not part of them.
UniProt P50406, whole entry: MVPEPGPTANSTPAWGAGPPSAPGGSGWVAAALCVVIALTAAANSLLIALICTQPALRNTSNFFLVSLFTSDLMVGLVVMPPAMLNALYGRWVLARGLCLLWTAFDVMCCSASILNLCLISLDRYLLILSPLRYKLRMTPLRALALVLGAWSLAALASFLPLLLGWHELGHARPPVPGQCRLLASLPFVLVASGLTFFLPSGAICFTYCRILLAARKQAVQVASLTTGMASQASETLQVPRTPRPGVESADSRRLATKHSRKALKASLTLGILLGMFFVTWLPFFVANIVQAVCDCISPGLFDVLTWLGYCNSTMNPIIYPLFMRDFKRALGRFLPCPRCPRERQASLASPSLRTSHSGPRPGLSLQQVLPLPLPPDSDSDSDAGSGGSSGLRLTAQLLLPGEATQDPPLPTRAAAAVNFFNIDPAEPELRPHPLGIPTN

Molecular target: 5HT6 (Homo sapiens, UniProt P50406)
Experiment: radioligand binding to serotonin receptor, cell membrane sample, Ki by Cheng-Prusoff
Settings: read-out: Ki value (nM) ±SE 5-HT6; rat 5-HT6 (HEK293), 8 nM [3H] 5HT 25° C. 120 min or 4 nM [3H] LSD 37° C. 60 min; tested form: oxalate
Description: A mixture of radioactive ligands and some cardinal numbers of test compounds was incubated with a sample of cell membrane, which was prepared from brain of rats or HEK293 cells, which expressed the receptor, under the following conditions. Then, the sample was filtered by suction on a Whatman GF/C. Radioactivity on the filter was encountered by the use of a liquid scintillation counter. 50% Inhibitory concentration values (IC50 values) of each selective binding were calculated for test compounds and the Ki value was obtained by applying an equation of Cheng-Prusoff [Biochem. Pharmacol. 22 (1973) 3099-3108] Ki=IC50/(1+[L]/Kd).

SMILES: CNC1COc2c(C)ccc3[nH]c(C)c(c23)C1 (stereo not shown)
- Ki: 2.7 nM
